{
  "source": "patent US9017735B2",
  "about": "“Modulation of KCNQ potassium channel activity for treatment of psychiatric disorders and the symptoms thereof” (Marquette University, priority 2009, dated 2015)",
  "test_system": "KCNQ potassium channels in prefrontal cortex",
  "assay": "Forced delayed alternation task in a T-maze (working memory), acute PCP model, brain microinfusion",
  "assay_type": "in vivo, rats",
  "settings": "phencyclidine administration in laboratory rodents; no dose stated",
  "procedure": "This experimental paradigm involves the working memory, a prefrontal cortex dependent task, and is used to examine attention and memory function. This study was conducted to determine the role of KCNQ channels in PFC in regulation of memory. […] N=16 rats per treatment. *p<0.05 vs. Sal/Sal; +p<0.05 vs. Sal/PCP.\nMicroinjection and Behavioral Experiments. Stainless Steel cannulae were implanted bilaterally 1 mm above nucleus accumbens or implanted in prefrontal cortex. Rats were permitted a minimum of 7 days recovery from surgery. Drugs were injected using an injection needle that extended 1 mm beyond the tip of the guide cannulae. The volume of injection was 1 μl for Linopirdine and XE991 and 0.5 μl for other drugs and was delivered over 1 minute. In experiments where two drugs were delivered into accumbens, the microinjections were separated by 15 minutes. Behavioral activity then was monitored as discussed in the Results.\nDrugs. All drugs were purchased from commercial sources and dissolved in saline. Linopirdine, XE991, and DMP543 were initially dissolved in 100% DMSO and diluted to final concentration of 25% DMSO (Linopirdine) and 40% (XE991 and DMP543). All drug doses were nmol per side and were injected bilaterally into the specified brain region.",
  "data": [
    {"smiles": "O=C1N(c2ccccc2)c2ccccc2C1(Cc1ccncc1)Cc1ccncc1", "note": "[Linopirdine, 3,3-bis(4-pyridinylmethyl)-1-phenylindolin-2-one]", "values": [
      {"measurement": "effect on deficits in forced delayed alternation task performance in a T-maze produced by phencyclidine (summary statement)", "result": "attenuate or fully reverse"}
    ]}
  ]
}
